OPERA 2.9 data: water solubility values

From the experimental data distributed with OPERA 2.9.

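These are experimental values that the OPERA curators gathered from public databases to train and test their QSAR models. A listed value is a point estimate from one report or more. Method and conditions are not stated for these values. A value may pool stereoisomers or salt forms, and the file does not say which form was measured. Some upstream entries may be estimates or bounds without being marked so.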

Solubility in water is on a log10 molar scale (set defined at 25 °C).

SMILES,water solubility (log10 mol/L)
CCCCC(CC)C(=O)NC(N)=O (configuration not stated),-2.668
N[C@@H]1C[C@H]1c1ccccc1,-1.951
Cc1cccc([N+](=O)[O-])c1C,-3.111
O=[PH]1Oc2ccccc2-c2ccccc21 (configuration not stated),-1.782
CN1C2CCC1CC(OC(=O)C(COS(=O)(=O)O)c1ccccc1)C2 (configuration not stated),-1.568
Cl.ClCCCN1CCN(c2cccc(Cl)c2)CC1,-1.9
Cc1ccc(Cl)cc1C,-3.718
C=C(Br)CC1(C(C)CC)C(=O)NC(=O)NC1=O (configuration not stated),-2.65
CCCCC(CC)COC(=O)OOC(C)(C)C (configuration not stated),-4.66
CCOC(=O)/C=C(C)/C=C/CC(C)CCCC(C)C (stereo partly drawn),-5.125
CCCC1(CC(C)C)C(=O)NC(=O)NC1=O,-2.258
CNC,1.56
CCCCC1(C)C(=O)NC(=O)NC1=O,-2.042
CC(C)OC(=O)C(O)(c1ccc(Cl)cc1)c1ccc(Cl)cc1,-4.53
COP(=S)(NC(C)C)Oc1ccccc1C(=O)OC(C)C (configuration not stated),-4.14
C=CC[C@]1(O)CC[C@H]2[C@@H]3CCC4=CCCC[C@@H]4[C@H]3CC[C@@]21C,-5.731
CCCCC(CC)C(=O)OOC(C)(C)CCC(C)(C)OOC(=O)C(CC)CCCC (configuration not stated),-7.188
CCOP(=S)(OCC)SCS(=O)(=O)C(C)(C)C,-2.9
CCCC1(CCC(C)C)C(=O)NC(=O)NC1=O,-2.595
CCC(C)OC(N)=O (configuration not stated),-0.3
Nc1c(C(=O)O)cc([N+](=O)[O-])cc1[N+](=O)[O-],-3.101
COP(N)(=S)Oc1ccccc1C(=O)OC(C)C (configuration not stated),-3.62
CCS(=O)(=O)C(C)(C)S(=O)(=O)CC,-1.219
CC(=O)O[C@H]1CC[C@H]2[C@@H]3CCC4CC(=O)CC[C@]4(C)[C@H]3CC[C@]12C (stereo in doubt),-5.045
O=C1C[C@@H]2OCC=C3C[N+]4([O-])CC[C@]56c7ccccc7N1[C@H]5[C@H]2[C@H]3C[C@@H]64 (stereo partly drawn),-1.275
Nc1nc(N)c2nc(N)c(N)nc2n1,-3.398
O=C(O)C(Cl)(Cl)CCl,-1.75
Oc1cc(Cl)c(Cl)c(Cl)c1,-3.489
Nc1ccc(OP(=S)(Oc2ccc(N)cc2)Oc2ccc(N)cc2)cc1,-5.309
O=C(O)C(F)(F)C(F)(F)C(F)(F)C(F)(F)C(F)(F)C(F)(F)C(F)(F)F,-1.913
OC(=NCCc1ncc(C(F)(F)F)cc1Cl)c1ccccc1C(F)(F)F,-4.42
CC(C)CC1(C)C(=O)NC(=O)NC1=O,-2.042
COc1nc(C)nc(NC(=O)NS(=O)(=O)c2ccccc2Cl)n1,-1.285
O=C([O-])C(F)(F)C(F)(F)C(F)(F)C(F)(F)C(F)(F)C(F)(F)C(F)(F)F.[Na+],-0.747
Oc1ccc(O)c(Cl)c1,0.805
C[C@@H]1O[C@@H](O[C@H]2CC[C@]3(C=O)[C@H]4CC[C@]5(C)[C@@H](C6=CC(=O)OC6)CC[C@]5(O)[C@@H]4CC[C@]3(O)C2)[C@H](O)[C@H](O)[C@H]1O,-3.04
CNc1ccc([N+](=O)[O-])cc1[N+](=O)[O-],-3.994
CC(C)(C)CCO,-0.71
O=C(NC(=O)c1c(F)cccc1F)Nc1ccc(CO/N=C(/c2ccc(Cl)cc2)C2CC2)cc1,-8.685

5 of these entries, quoted again:

| SMILES | water solubility (log10 mol/L) |
|---|---|
| Cc1cccc([N+](=O)[O-])c1C | -3.111 |
| Oc1cc(Cl)c(Cl)c(Cl)c1 | -3.489 |
| O=C1C[C@@H]2OCC=C3C[N+]4([O-])CC[C@]56c7ccccc7N1[C@H]5[C@H]2[C@H]3C[C@@H]64 (stereo partly drawn) | -1.275 |
| O=C([O-])C(F)(F)C(F)(F)C(F)(F)C(F)(F)C(F)(F)C(F)(F)C(F)(F)F.[Na+] | -0.747 |
| CCCC1(CC(C)C)C(=O)NC(=O)NC1=O | -2.258 |